EPAC2 agonist – activates human EPAC2 exchange factor | 360,000 compounds, 0.079% hits | Potency, µM (titrated, usually from 154 µM), inactives show at the highest dose activation, most hits filed as activators | AID 720711 | EPAC2 activation, biochemical qHTS; response scale: 100% = 6.5 mM cAMP response | Q8WZA2; note: nearly all actives have a fitted effect of over 50% in size
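Readout is BODIPY fluorescence (480 nm excitation, 540 nm emission), which falls as labeled GDP is exchanged off Rap1B. EPAC2 at 100 nM acted on 250 nM RAP1B-BODIPY-GDP with 50 uM GDP present.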
EPAC1 agonist – EPAC1 (human) agonism; 360,000 compounds, 0.073% hits; EPAC1 agonist qHTS, biochemical assay; response scale: 100% = response to 6.5 mM cAMP; O95398; Potency, µM (series often up to 154 µM), for inactives: at the highest dose activation, usual class: activators; AID 720707; note: nearly all actives have a fitted effect of over 60% in size
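Nucleotide exchange assay: 100 nM EPAC1 with 250 nM Rap1B loaded with BODIPY-GDP and 50 uM GDP, room temperature. Fluorescence (480/540 nm) read every 5 min for 30 min; signal change normalized to 6.5 mM cAMP as full agonist.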
Rango complex inh – prevents formation of the Rango-importin beta complex | Q14974 | Rango CFP/YFP FRET sensor + importin beta, 45 min | Potency, µM (top dose mostly 92.2 µM), for inactives: at the highest dose inhibition of complex formation | AID 540263 | 340,000 compounds, 0.031% hits; calls by dose curve;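 note: 0% = DMSO wells and 100% = buffer wells lacking importin beta; nearly all actives have a fitted effect of over 15% in size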
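FRET biosensor (snurportin 1 IBB flanked by EYFP and cerulean), 50 nM, with compound 5 min, then 0.125 microM importin beta in PBS, 1 mM DTT, 0.02% Tween-20, 0.1% BSA. CFP/YFP ratio read after 45 min at room temperature; pre-read flags interference.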
EPAC1 antag – antagonists of human EPAC1 | O95398 | EPAC1 GEF assay, Rap1b-BODIPY-GDP exchange fluorescence | Potency, µM (highest dose often 115 µM), inactives show at the highest dose activity change, negative = inhibition, most hits filed as inhibitors | 360,000 compounds, 0.14% hits | AID 720709;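 note: plate controls were vehicle for no effect and positive control for full effect; nearly all actives have a fitted effect of over 50% in size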
Rango release inh – inhibition of RanGTP-driven Rango-importin beta dissociation | O95149+P62826 | Biochemical FRET Rango-importin beta, RanGTP-induced dissociation | Potency, µM (doses to about 46.1 µM), without a hit: top-dose activity change, negative = inhibition | 340,000 compounds, 0.071% hits; calls by dose curve; note: % of control where 0% means no effect; nearly all actives have a fitted effect of over 45% in size
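Rango/importin beta premix (0.1/0.25 uM final), PBS + 1 mM DTT + 0.02% Tween-20 + 0.1% BSA; cpd 5 min RT; FRET pre-read; + RanGTP-RCC1 (0.6 uM Ran, 2 mM GTP, 0.2 uM RCC1); 45 min RT; FRET post-read, ex 430, em 486/530 nm.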
EPAC2 antag – antagonists of human EPAC2; EPAC2 GEF exchange of Rap1B-BODIPY-GDP, fluorescence; Potency, µM (highest dose often 114 µM), inactives show top-dose activity, negative = inhibition, hits mostly inhibitors; 360,000 compounds, 0.18% hits; AID 720708; note: % is set by controls: 0 for no effect and ±100 for the full control effect; nearly all actives have a fitted effect of over 45% in size
Numbers without * were called inactive; ? = inconclusive; . = no result; [ ] = remark or other dose. In the library only some 0.48% were active in any assay of this set; here they are far more common. Unless noted, calls come from the whole dose curve; as a rule, active = well fitted curve in the direction sought with a large enough effect; inconclusive = small, poorly fitted or top-dose-only effect, or another doubt; inactive = no such curve, though single readings can be large; an effect the other way counts as inactive or inconclusive. Potency is the fitted concentration of half-maximal effect.

cpd | smiles | EPAC2 agonist | EPAC1 agonist | Rango complex inh
1 | CCCN1CC=C2C(C#N)=C(N)C(C#N)(C#N)C(c3cccc(OC)c3OC)C2C1 (stereo unspecified) | 7% | ? | ?
2 | CC(=O)N1CC=C2C(C#N)=C(N)C(C#N)(C#N)C(CCc3ccccc3)C2C1 (stereo unspecified) | 24% | 20% | ?
3 | COc1ccccc1NC(=O)c1cc2c(CO)cnc(C)c2oc1=Nc1cccc(C(N)=O)c1 | -3% | 3% | 0%
4 | CCCCn1c(NS(=O)(=O)c2ccccc2)c(S(=O)(=O)c2ccc(C)cc2)c2nc3ccccc3nc21 | -18% | -1% | ?
5 | COc1cc(CNc2ccc(O)cc2)cc(Br)c1OCc1ccccc1 | 14% | 17% | 0%
6 | COc1ccc(NC(=O)/C(C#N)=C\c2ccc(N3CCOCC3)o2)cc1 | 19% | 24% | ?
7 | CCc1ccc(NC(=O)/C(C#N)=C/c2cc3ccc(C)cc3nc2N2CCOCC2)cc1 | 100µM* | -1% | 4%
8 | CC(C)CC1NC(=O)c2cc3ccccc3cc2-n2c1nc1cc(Cl)ccc1c2=O (stereo unspecified) | -10% | -9% | .
9 | COc1cccc(C(=O)N2CCC[C@H]2C(=O)N2CCC[C@H]2C(=O)NCc2ccccn2)c1 | 0% | 5% | .
10 | Cc1cc(N/N=C/c2ccc(O)cc2)c2cccc(C)c2n1 | -3% | 3% | ?
11 | Cc1cc(C)c2nc(C)cc(N/N=C/c3ccc(O)cc3)c2c1 | 4% | 11% | ?
12 | CCOC(=O)[C@]12CCCC=C1N(Cc1ccco1)C(=O)[C@H](CC(=O)NCc1ccccc1)C2 | 5% | 6% | .

cpd | EPAC1 antag | Rango release inh | EPAC2 antag
1 | -8% | ? | 22µM*
2 | -2% | ? | -22%
3 | 0% | 4% | 6%
4 | 50µM* | ? | -9%
5 | 40µM* | 7% | ?
6 | -17% | ? | 1%
7 | 7% | -17% | 8%
8 | 4% | . | -1%
9 | -6% | . | 0%
10 | 0% | ? | 1%
11 | -28% | 15µM* | 3%
12 | 8% | . | 9%

Record cards, as listed above.
Profile of CC(C)CC1NC(=O)c2cc3ccccc3cc2-n2c1nc1cc(Cl)ccc1c2=O (stereo unspecified) = EPAC2 agonist: -10%; EPAC1 agonist: -9%; Rango complex inh: .; EPAC1 antag: 4%; Rango release inh: .; EPAC2 antag: -1%
Profile of Cc1cc(N/N=C/c2ccc(O)cc2)c2cccc(C)c2n1 = EPAC2 agonist: -3%; EPAC1 agonist: 3%; Rango complex inh: ?; EPAC1 antag: 0%; Rango release inh: ?; EPAC2 antag: 1%

Remaining list, next part
cpd | smiles | EPAC2 agonist | EPAC1 agonist | Rango complex inh
13 | Cc1ccc(C(=O)N/C(=C\c2ccc(-c3cc(Cl)ccc3Cl)o2)C(=O)NCc2cccnc2)cc1 | -2%[15.6 µM] | 5% | ?
14 | O=C(NCc1cccnc1)/C(=C/c1ccc(-c2cccc(Cl)c2)o1)S(=O)(=O)c1ccccc1 | -5% | -2% | 1%
15 | CCC(CC)c1nnc(NC(=O)Cc2ccccc2[N+](=O)[O-])s1 | 4% | -7% | 2%
16 | COC(=O)C(=O)/C=C(\O)c1c(C)cc(C)cc1C | 7% | 7% | 65µM*
17 | CN(C)CC/C=C1/c2ccccc2Sc2c(O)cc(Cl)cc21 | 10% | 1% | 0%
18 | COc1cc(Cl)cc2c1Sc1ccccc1/C2=C/CCN(C)C | 11% | 0% | -2%
19 | Cc1cccc(NC(=O)CSCC(=O)N(C)CCOc2ccc(Cl)cc2)c1 | 9% | 50µM* | 5%
20 | O=C(O)CC/C(=C\c1ccc(N2CCCC2)c([N+](=O)[O-])c1)c1nc2ccccc2s1 | -5% | 89µM* | ?
21 | CN(c1ccccc1)c1ccc(/C=C(/CCC(=O)O)c2nc3ccccc3s2)cc1[N+](=O)[O-] | 2% | 25% | ?
22 | COc1cccc(-c2cc3nc(NCCN4CCCC4)n(C)c(=O)c3s2)c1 | 4% | 4% | .
23 | CC(=O)CCc1oc2ccc(C)cc2c1Cc1ccccc1 | 8% | 8% | 0%
24 | CC(=O)CCc1oc2ccccc2c1-c1ccccc1 | 23% | 16% | 5%

cpd | EPAC1 antag | Rango release inh | EPAC2 antag
13 | -17% | 10µM* | -12%
14 | -1% | -6% | 1%
15 | 4% | -5% | 1%
16 | 21% | 7% | 0%
17 | -1% | 5% | 35µM*
18 | -2% | -12% | -3%
19 | -12% | -22% | -7%
20 | 45µM* | -13% | 19%
21 | ? | 9% | -26%
22 | -5% | . | 16%
23 | ? | 0% | ?
24 | -5% | 16% | 25µM*

Following part:
cpd | smiles | EPAC2 agonist | EPAC1 agonist | Rango complex inh
25 | O=C(O)c1cccc(N2C(=O)c3cccc4cccc(c34)C2=O)c1 | 10% | -1% | 3%
26 | O=C(O)c1cccc(N2C(=O)c3cc([N+](=O)[O-])cc4cc([N+](=O)[O-])cc(c34)C2=O)c1 | 7% | -4% | 3%
27 | COC(CNC(=O)C(=O)NCC1OCCN1S(=O)(=O)c1ccccc1)OC (stereo unspecified) | 3% | -9% | -2%
28 | COCCn1c(-c2ccc(Br)cc2)csc1=Nc1cccnc1 | -3% | 10% | 3%
29 | COC(=O)c1ccc(/C=C(\C#N)c2nc3ccccc3s2)cc1 | 10% | -4% | ?
30 | N#C/C(=C\c1ccccn1)c1nc2ccccc2s1 | -107% | -42% | ?
31 | O=C(CNC(=O)c1cccc(F)c1)OCC(=O)N1CCCc2ccccc21 | 8% | 6% | 2%
32 | C#CCOCCOCCOCCNc1nc(N2CCN(C(=O)C([C@@H](C)O)n3cc([C@@H](N)CCCCN)nn3)CC2)nc(N2CCN(C(=O)[C@H](CCCCN)n3cc([C@@H](N)[C@H](C)CC)nn3)CC2)n1 (stereo partly specified) | 9% | -13% | 19%
33 | C#CCOCCOCCOCCNc1nc(N2CCN(C(=O)CCCCCCCCCCNC(=O)[C@H](CCCCN)n3cc(C[C@@H](C)CC)nn3)CC2)nc(N2CCN(C(=O)CCCCCCCCCCNC(=O)[C@@H]([C@H](C)O)n3cc(C)nn3)CC2)n1 | -1% | -8% | 6%
34 | C#CCOCCOCCOCCNc1nc(N2CCN(C(=O)CCCCCCCCCCNC(=O)[C@H](CCCCN)n3cc(C[C@@H](C)CC)nn3)CC2)nc(N2CCN(C(=O)CCCCCCCCCCNC(=O)[C@H](CCCN=C(N)N)n3cc(C[C@@H](C)CC)nn3)CC2)n1 | 11% | 27% | 65µM*
35 | C#CCOCCOCCOCCNc1nc(N2CCN(C(=O)C([C@@H](C)O)n3cc([C@@H](N)CCCCN)nn3)CC2)nc(N2CCN(C(=O)[C@H](CCCN=C(N)N)n3cc(C(N)[C@@H](C)CC)nn3)CC2)n1 (stereo partly specified) | 7% | 10% | 52µM*
36 | C#CCOCCOCCOCCNc1nc(N2CCN(C(=O)CCCCCCCCCCNC(=O)[C@H](CCCCN)n3cc(CCO)nn3)CC2)nc(N2CCN(C(=O)CCCCCCCCCCNC(=O)[C@H](CCCCN)n3cc(C[C@@H](C)CC)nn3)CC2)n1 | ? | -8% | ?

cpd | EPAC1 antag | Rango release inh | EPAC2 antag
25 | ? | -6% | -11%
26 | -10% | -9% | 50µM*
27 | -4% | 8% | 11%
28 | -1% | 6% | 45µM*
29 | 5% | ? | 6%
30 | ? | ? | 25µM*
31 | -20% | 5% | -6%
32 | 34% | -2% | 4%
33 | ? | -10% | ?
34 | ? | ? | ?
35 | 2% | -10% | 2%
36 | -26% | -17% | -1%
